Consider 13 molecules from patent US20230227484A1, “PYRIMIDINE COMPOUND AS AXL INHIBITOR” (NANJING CHIA TAI TIANQING PHARMACEUTICAL CO., LTD., priority 2020, published 2023).

By UniProt entry, the sequences of proteins in these tests, tags left out. Residues count along the entry.
UniProt P30530, 473-894 limits assumed: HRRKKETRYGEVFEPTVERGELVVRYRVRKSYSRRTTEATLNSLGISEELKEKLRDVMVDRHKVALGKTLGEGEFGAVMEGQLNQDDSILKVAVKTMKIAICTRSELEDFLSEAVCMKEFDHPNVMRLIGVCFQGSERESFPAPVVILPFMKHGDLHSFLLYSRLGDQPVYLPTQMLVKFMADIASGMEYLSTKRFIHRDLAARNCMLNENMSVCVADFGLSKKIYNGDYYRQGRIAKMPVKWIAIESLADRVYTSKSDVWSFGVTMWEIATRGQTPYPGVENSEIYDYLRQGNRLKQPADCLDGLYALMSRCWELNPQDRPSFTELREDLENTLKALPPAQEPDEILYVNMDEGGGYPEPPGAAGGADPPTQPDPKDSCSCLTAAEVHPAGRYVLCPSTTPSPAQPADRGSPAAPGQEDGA

For orientation: Cmax means the highest concentration seen after dosing. As usually defined, the Tmax is the time at which the peak concentration occurs. For orientation: IC50 means the concentration that inhibits the measured activity by half.

Structures are written as SMILES.

Data set [1] can be described thus: Pharmacokinetic study of compounds on ICR mice. Conditions: male ICR mice, 10 mg-kg^1 by gavage, plasma.
Data set [2] deals with AXL kinase (Homo sapiens, UniProt P30530). The data set is described as follows: Inhibitory activity of compound against AXL kinase (HTRF KinEASE). The data set is classed as biochemical. Conditions: read-out: Inhibitory activity IC50 (nM) against AXL; AXL enzyme (Carna, 08-107), ATP 15 μM; "<" means below detection limit of the test. (In general: In TR-FRET formats the signal depends on donor and acceptor labels being close together.)

The test system of data set [3] is MV-4-11 (human myeloid monocytic leukemia cell line). Nature of the data set: Proliferation inhibition activity of compounds to MV-4-11 cells (CellTiter-Glo). Conditions: read-out: IC50 (MV4-11), MV4-11 cells, 72 h dosing. In general terms: Cellular ATP, detected with luciferase, serves as a proxy for viable cell number.

Consider `CP(C)(=O)c1cc(F)ccc1Nc1nc(Nc2ccc3c(c2)CCC(N2CCC4CC42)CC3)ncc1Cl` (single isomer, unassigned) [Example 58 Isomer 58-1], for which, in data set [1], the AUC0-24 is 822 ng·h/mL, the Cmax turned out to be 171 ng/mL, the T1/2 turned out to be 4.04 h and the Tmax stood at 0.50 h. The IC50 in data set [2] was determined as 1.88 nM.
For `CP(C)(=O)c1cc(F)ccc1Nc1nc(Nc2ccc3c(c2)CCC(N2CCC4CC42)CC3)ncc1Cl` (single isomer, unassigned) [Example 58 Isomer 58-2], in data set [1], the AUC0-24 is 549 ng·h/mL, the Cmax turned out to be 278 ng/mL, the T1/2 is 3.06 h and the Tmax is 0.25 h. In data set [2], the IC50 is 6.45 nM.
As to `CP(C)(=O)c1cc(F)ccc1Nc1nc(Nc2ccc3c(c2)CCC(N2CC4CC4C2)CC3)ncc1Cl` (single isomer, unassigned) [Example 59 Isomer 59-1], in data set [1], the AUC0-24 was 2380 ng·h/mL, the Cmax was 695 ng/mL, the T1/2 was 2.90 h and the Tmax was determined as 0.25 h. Moreover, in data set [2], the 50% inhibitory concentration (IC50) came to 1.39 nM.
On the same counts, the results for `CP(C)(=O)c1cc(F)ccc1Nc1nc(Nc2ccc3c(c2)CCC(N2CC4CC2C4)CC3)ncc1Cl` (single isomer, unassigned) [Example 60 Isomer 60-1] are 857 ng·h/mL, 572 ng/mL, 1.55 h, 0.50 h and 1.65 nM.
Regarding `Cc1ccc(Nc2nc(Nc3ccc4c(c3)CCC(N3C5CCC3COC5)CC4)ncc2Cl)c(P(C)(C)=O)c1` (single isomer, unassigned) [Example 90 Isomer 90-1], the IC50 is 2.94 nM in data set [3] and 0.57 nM in data set [2].
On the same counts, the results for `CP(C)(=O)c1cc(F)ccc1Nc1nc(Nc2ccc3c(c2)CCC(N2C4COCC2C4)CC3)ncc1Cl` (single isomer, unassigned) [Example 91 Isomer 91-1] are 2.25 nM and 1.56 nM.
The matching figures for `CP(C)(=O)c1cc(F)ccc1Nc1nc(Nc2ccc3c(c2)CCC(N2C4CCC2COC4)CC3)ncc1Cl` (single isomer, unassigned) [Example 92 Isomer 92-1]: 2.01 nM and 1.42 nM.
Regarding `CP(C)(=O)c1cc(Cl)ccc1Nc1nc(Nc2ccc3c(c2)CCC(N2C4COCC2C4)CC3)ncc1Cl` (single isomer, unassigned) [Example 93 Isomer 93-1], the IC50 in data set [3] was 2.65 nM; in data set [2], 1.08 nM.
The matching figures for `CP(C)(=O)c1cc(Cl)ccc1Nc1nc(Nc2ccc3c(c2)CCC(N2C4CCC2COC4)CC3)ncc1Cl` (single isomer, unassigned) [Example 94 Isomer 94-1]: 2.42 nM and 0.68 nM.
Regarding `CP(C)(=O)c1cc(OC(F)(F)F)ccc1Nc1nc(Nc2ccc3c(c2)CCC(N2CC4CC2C4)CC3)ncc1Cl` (single isomer, unassigned) [Example 102 Isomer 102-1], the IC50 in data set [3] was 5.19 nM; in data set [2] it was 1.16 nM.
With `CP(C)(=O)c1cc(OC(F)(F)F)ccc1Nc1nc(Nc2ccc3c(c2)CCC(N2C[C@H]4C[C@@H]2CO4)CC3)ncc1Cl` (single isomer, unassigned) [Example 103 Isomer 103-1], the IC50 was 6.24 nM in data set [3] and 1.34 nM in data set [2].
On the same counts, the results for `CP(C)(=O)c1cc(OC(F)(F)F)ccc1Nc1nc(Nc2ccc3c(c2)CCC(N2C[C@@H]4C[C@H]2CO4)CC3)ncc1Cl` (single isomer, unassigned) [Example 104 Isomer 104-1] are 7.21 nM and 1.33 nM.
Take `CP(C)(=O)c1cc(Cl)ccc1Nc1nc(Nc2ccc3c(c2)CCC(N2C[C@H]4C[C@@H]2CO4)CC3)ncc1Cl` (single isomer, unassigned) [Example 105 Isomer 105-1]: the figures for the IC50 in data set [3] and in data set [2] were 2.16 nM and 0.86 nM, respectively.
